pIC50: −log10 of the molar value.
Biological target: β-secretase (Homo sapiens, UniProt P56817)
Experiment: MBP C125 assay of peptide inhibitors
Settings: read-out: IC50 Group, heptamer peptides

Sequences of proteins named here, by UniProt entry; tags and fusion partners are left off. Residues count along the entry.
UniProt P56817, 46-501 limits assumed: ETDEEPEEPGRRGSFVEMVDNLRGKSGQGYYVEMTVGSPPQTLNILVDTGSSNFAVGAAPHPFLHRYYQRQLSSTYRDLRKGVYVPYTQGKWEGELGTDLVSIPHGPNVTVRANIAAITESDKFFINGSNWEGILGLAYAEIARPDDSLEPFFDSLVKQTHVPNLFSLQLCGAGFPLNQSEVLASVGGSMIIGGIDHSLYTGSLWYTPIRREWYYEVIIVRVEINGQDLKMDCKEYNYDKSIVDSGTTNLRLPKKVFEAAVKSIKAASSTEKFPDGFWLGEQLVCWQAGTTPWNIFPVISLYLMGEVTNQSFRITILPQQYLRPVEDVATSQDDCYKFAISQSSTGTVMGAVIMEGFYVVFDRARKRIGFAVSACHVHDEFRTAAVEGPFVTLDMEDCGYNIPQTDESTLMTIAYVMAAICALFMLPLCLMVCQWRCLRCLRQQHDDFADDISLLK

- pIC50: > 6.00
Structure (SMILES): CCCC[C@H](NC(=O)[C@@H](NC(C)=O)C(C)C)C(=O)N[C@@H](CC(C)C)[C@@H](O)CC(=O)N[C@H](C(=O)N[C@@H](C)C(=O)N[C@@H](CCC(=O)O)C(=O)N[C@@H](Cc1ccccc1)C(=O)O)C(C)C
